Measured values as given in patent US20240199648A1, “MAP4K1 INHIBITORS” (Blueprint Medicines Corporation, priority 2021, published 2024).
pEC50, pIC50: −log10 of the molar value.

By UniProt entry, the sequences of proteins in these tests, tags left out.
UniProt Q92918, whole entry: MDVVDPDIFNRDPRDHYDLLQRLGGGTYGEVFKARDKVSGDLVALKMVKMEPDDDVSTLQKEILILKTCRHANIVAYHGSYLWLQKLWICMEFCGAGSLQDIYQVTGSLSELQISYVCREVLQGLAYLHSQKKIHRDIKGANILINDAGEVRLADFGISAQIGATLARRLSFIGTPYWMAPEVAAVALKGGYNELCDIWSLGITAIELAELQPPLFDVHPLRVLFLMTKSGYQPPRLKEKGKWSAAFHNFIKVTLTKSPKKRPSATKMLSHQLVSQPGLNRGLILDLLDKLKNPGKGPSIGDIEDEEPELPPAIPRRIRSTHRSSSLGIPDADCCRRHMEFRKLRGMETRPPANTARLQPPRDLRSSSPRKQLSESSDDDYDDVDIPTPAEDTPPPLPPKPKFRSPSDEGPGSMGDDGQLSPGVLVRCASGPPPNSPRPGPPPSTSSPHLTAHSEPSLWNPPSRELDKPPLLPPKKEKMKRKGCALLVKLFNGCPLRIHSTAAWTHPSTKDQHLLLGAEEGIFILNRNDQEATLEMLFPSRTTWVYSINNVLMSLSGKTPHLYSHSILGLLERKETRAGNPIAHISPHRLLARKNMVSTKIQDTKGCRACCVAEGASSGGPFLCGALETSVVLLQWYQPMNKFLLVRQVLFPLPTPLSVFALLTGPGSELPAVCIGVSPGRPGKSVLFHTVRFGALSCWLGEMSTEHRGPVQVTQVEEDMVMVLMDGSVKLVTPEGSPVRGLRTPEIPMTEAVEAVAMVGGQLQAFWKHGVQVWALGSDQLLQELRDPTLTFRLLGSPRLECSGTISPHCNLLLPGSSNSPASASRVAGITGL

Experiments:
MAP4K1 (HPK1) = MAP4K1 (HPK1) (Homo sapiens, UniProt Q92918); assay: Inhibition of MAP4K1 biochemical enzymatic activity (EZReader 2 electrophoretic mobility shift assay); details: read-out: MAP4K1 IC50; HPK1 (Invitrogen), S6K2tide 1.5 μM, 120 min; ATP 26 μM or 1000 μM (not stated which)
Source text: MAP4K1 (HPK1) and relevant off-target enzymatic activity was monitored using the Perkin Elmer electrophoretic mobility shift technology platform—the EZReader 2. […] Within the linear, steady-state phase of the kinase enzymatic reaction, the mixed pool of phosphorylated (product) and non-phosphorylated (substrate) peptides was passed through the microfluidic system of the PerkinElmer EZ Reader 2, under an applied electric potential difference. The presence of the phosphate group on the product peptide provided a difference in mass and charge between that of the substrate peptide, resulting in a separation of the substrate and product pools in the sample (Perrin et al. 2010). As the product and substrate peptide mixture passes the lasers within the instrument, these pools are detected (λex=488 nm, λem=568 nm) and resolved as separate peaks. […]
Enzyme activity assays at the ^APPKM for ATP or 1 mM ATP: In each well of a 384-well plate, 0.1-15 nM of untreated enzyme was incubated in a total of 13 μL of buffer (100 mM HEPES pH 7.5, 0.015% Brij 35, 10 mM MgCl2, 1 mM DTT) with 1.5 μM fluorescent peptid and 20-1000 μM ATP, at 25° C., for 60-180 minutes in the presence or absence of a dosed concentration series of compound (1% DMSO final concentration). […] The plates were read on a Caliper EZReader 2 as described above.

Primary T Cell = assay: T cell enhancement of cytokines: IL2 measurement (HTRF) in expanded CD3+ T cells stimulated with anti-CD3/anti-CD28; details: read-out: IL-2 Primary T Cell EC50, plate-bound anti-CD3 and soluble anti-CD28, 24 h
Description: T cells are isolated from whole blood of healthy donors by immunomagnetic negative selection following manufacture's protocol (StemCell Technologies, human T cell isolation kit). Purity of isolated cells is assessed by flow cytometry and yields 95-98% CD3^+ T cells. For expansion of T cells, 1×10^6 cells/well are plated in serum free cell expansion media (ThermoFisher) containing 30U of recombinant human IL2 (R&D) and stimulated with 25 ul of CD3/CD28 beads (Invitrogen) in 24 well plates for 3-4 days. T cells are then expanded in 175 cm flasks and maintained at a cell density of 1 to 2.5×10^6 cells/ml days by addition of ⅔ of fresh media every 2-3 days. After 10-14 days, cells are frozen in BamBanker freezing media (Thermo) and stored in liquid nitrogen.
For IL2 measurement, expanded CD3+ T cells are dispensed at 100K cells/well (cultured in X-VIVO 10 Serum-free media) and are stimulated with plate-bound anti-CD3 and soluble anti-CD28 in the presence of vehicle or compound of the disclosure at various concentrations for 24 h. As outlined in the manufacturer's protocol (Cisbio), 16 μL of conditioned media is transferred to a white 384-well low volume plate. Following a 24 h incubation with the anti-IL2 antibodies, the homogenous time resolved fluorescence (HTRF) is measured.

Compound | pIC50 (MAP4K1 (HPK1)) | pEC50 (Primary T Cell)
COC[C@@](C)(N)c1cnc(O[C@H]2C[C@@H](C(=O)N(C)C)C2)c2cnc(Nc3ccc4c(n3)[C@@H](C)[C@H](C)OC4=O)cc12 | 9.66 | 7.30
CCC(N)c1ccc(OC2CN(C(=O)[C@H]3C[C@H]3F)C2)c2cnc(Nc3ccc4c(n3)[C@@H](C)C(C)(C)OC4=O)cc12 (stereo partly shown) | 9.62 | 6.24
